In patent EP4741420A1, “PHARMACEUTICAL COMPOSITION FOR PREVENTING OR TREATING OBESITY COMPRISING GLP ANALOGUE AS ACTIVE INGREDIENT” (priority 2023, dated 2025):

Biological target: GLP-1R (on GLP-1R/CHO cells, DiscoverX 95-0062C2) (UniProt P43220)
Assay: cell-based or functional assay

EC50, cAMP increase in GLP-1R/CHO cells, average (n=4): 9.6 pM
GLP-1 activity (EC50, pM): 7.1 pM
GLP-1 activity, Compared to GLP-1 (Exendin-4): 100%
Relative to GLP-1 (Exendin-4) %, cAMP in GLP-1R/CHO cells, average (n=4): 100%
Substance: Exendin-4 (from UniProt P26349) (peptide)
